The values below are quoted from earlier work in article PMC9772450, “Gel-forming antagonist provides a lasting effect on CGRP-induced vasodilation” (Frontiers in Pharmacology, 2022).

The conditions of the data set: approved peptide therapeutics; cited from earlier work.

With octreotide, the Volume of distribution was 18.1 to 30.4 L.
